# Experimental data as given in US7759499B2, “Compounds as inhibitors of hepatitis C virus NS3 serine protease” (Schering Corporation, priority 2004, dated 2010).
# Chains of the proteins cited; added tags and fusions are not shown. Residues count along the entry.
# UniProt P27958, 1027-1657: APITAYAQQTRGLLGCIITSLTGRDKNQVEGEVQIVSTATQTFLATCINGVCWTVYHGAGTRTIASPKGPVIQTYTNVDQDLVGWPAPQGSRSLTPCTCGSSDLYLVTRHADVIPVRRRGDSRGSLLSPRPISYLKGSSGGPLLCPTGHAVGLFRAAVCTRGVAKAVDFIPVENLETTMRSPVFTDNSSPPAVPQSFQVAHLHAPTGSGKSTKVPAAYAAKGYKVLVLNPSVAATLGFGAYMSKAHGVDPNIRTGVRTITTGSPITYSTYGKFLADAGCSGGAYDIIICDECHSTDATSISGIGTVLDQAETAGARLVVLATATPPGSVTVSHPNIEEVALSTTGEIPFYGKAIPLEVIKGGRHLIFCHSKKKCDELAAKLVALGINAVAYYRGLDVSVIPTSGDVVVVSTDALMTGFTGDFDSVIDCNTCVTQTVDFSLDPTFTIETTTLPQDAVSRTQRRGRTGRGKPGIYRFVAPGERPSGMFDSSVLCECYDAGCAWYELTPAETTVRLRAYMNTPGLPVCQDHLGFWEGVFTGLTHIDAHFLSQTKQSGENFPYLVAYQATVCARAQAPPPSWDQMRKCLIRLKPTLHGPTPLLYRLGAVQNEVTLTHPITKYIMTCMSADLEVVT
# UniProt P27958, 1658-1711: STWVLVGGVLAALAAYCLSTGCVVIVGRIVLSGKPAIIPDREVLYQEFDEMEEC
# Biological target: Recombinant heterodimeric HCV NS3/NS4A protease (strain 1a) (Hepatitis C virus genotype 1a, UniProt P27958)
# Test: Spectrophotometric assay for HCV protease inhibitory activity
# Type: biochemical
# Conditions: Table 4, range
row,Compound,Ki
1,C=CCNC(=O)C(=O)C(CCC)NC(=O)[C@@H]1[C@@H]2[C@H](CN1C(=O)[C@@H](NC(=O)N[C@H](CNC(=O)c1cncnc1)C(C)(C)C)C1CCCCC1)C2(C)C (stereo partly shown) [Compound 13033],≤ 75 nM

# Same assay, conditions: Table 5, range
row,Compound,Ki
1,CC(C)OC(=O)NC[C@@H](NC(=O)N[C@H](C(=O)N1C[C@H]2[C@@H]([C@H]1C(=O)NC(CC1CCC1)C(=O)C(N)=O)C2(C)C)C(C)(C)C)C(C)C (stereo partly shown) [Compound 14001],≤ 75 nM
2,CC(C)[C@@H](CNC(=O)Nc1ccccc1)NC(=O)N[C@H](C(=O)N1C[C@H]2[C@@H]([C@H]1C(=O)NC(CC1CCC1)C(=O)C(N)=O)C2(C)C)C(C)(C)C (stereo partly shown) [Compound 14002],≤ 75 nM
3,CC(C)[C@H](CNC(=O)OCc1ccccc1)NC(=O)N[C@H](C(=O)N1C[C@H]2[C@@H]([C@H]1C(=O)NC(CC1CCC1)C(=O)C(N)=O)C2(C)C)C(C)(C)C (stereo partly shown) [Compound 14003],75 to 250 nM
4,CC(C)(C)OC(=O)NCC1(NC(=O)N[C@H](C(=O)N2C[C@H]3[C@@H]([C@H]2C(=O)NC(CC2CCC2)C(=O)C(N)=O)C3(C)C)C(C)(C)C)CCCCC1 (stereo partly shown) [Compound 14004],≤ 75 nM
5,CC(C)(C)OC(=O)NCC1(NC(=O)N[C@H](C(=O)N2C[C@H]3[C@@H]([C@H]2C(=O)NC(CC2CC2)C(=O)C(N)=O)C3(C)C)C(C)(C)C)CCCCC1 (stereo partly shown) [Compound 14005],≤ 75 nM
6,CC(C)COC(=O)NC[C@@H](NC(=O)N[C@H](C(=O)N1C[C@H]2[C@@H]([C@H]1C(=O)NC(CC1CCC1)C(=O)C(N)=O)C2(C)C)C(C)(C)C)C(C)C (stereo partly shown) [Compound 14009],≤ 75 nM
7,COC(=O)NC[C@@H](NC(=O)N[C@H](C(=O)N1C[C@H]2[C@@H]([C@H]1C(=O)NC(CC1CCC1)C(=O)C(N)=O)C2(C)C)C(C)(C)C)C(C)C (stereo partly shown) [Compound 14010],≤ 75 nM
8,CC(C)[C@@H](CNC(=O)OCC(C)(C)C)NC(=O)N[C@H](C(=O)N1C[C@H]2[C@@H]([C@H]1C(=O)NC(CC1CCC1)C(=O)C(N)=O)C2(C)C)C(C)(C)C (stereo partly shown) [Compound 14011],≤ 75 nM
9,CC(C)[C@@H](CNC(=O)OC(C)(C)C)NC(=O)N[C@H](C(=O)N1C[C@H]2[C@@H]([C@H]1C(=O)NC(CC1CCC1)C(=O)C(N)=O)C2(C)C)C(C)(C)C (stereo partly shown) [Compound 14012],75 to 250 nM
10,CC(C)[C@@H](CNC(=O)N[C@H](C(=O)N1C[C@H]2[C@@H]([C@H]1C(=O)NC(CC1CCC1)C(=O)C(N)=O)C2(C)C)C(C)(C)C)NC(=O)OCc1ccccc1 (stereo partly shown) [Compound 14016],75 to 250 nM
11,C=CCNC(=O)C(=O)C(CCCC)NC(=O)[C@@H]1[C@@H]2[C@H](CN1C(=O)[C@@H](NC(=O)N[C@@H](CNC(=O)OCc1ccccc1)C(C)C)C(C)(C)C)C2(C)C (stereo partly shown) [Compound 14017],75 to 250 nM
12,COC(=O)NC[C@@H](NC(=O)N[C@H](C(=O)N1C[C@H]2[C@@H]([C@H]1C(=O)NC(CC1CC1)C(=O)C(N)=O)C2(C)C)C(C)(C)C)C(C)C (stereo partly shown) [Compound 14019],≤ 75 nM
13,CCOC(=O)NC[C@@H](NC(=O)N[C@H](C(=O)N1C[C@H]2[C@@H]([C@H]1C(=O)NC(CC1CC1)C(=O)C(N)=O)C2(C)C)C(C)(C)C)C(C)C (stereo partly shown) [Compound 14020],≤ 75 nM
14,CC(C)OC(=O)NC[C@@H](NC(=O)N[C@H](C(=O)N1C[C@H]2[C@@H]([C@H]1C(=O)NC(CC1CC1)C(=O)C(N)=O)C2(C)C)C(C)(C)C)C(C)C (stereo partly shown) [Compound 14021],≤ 75 nM
15,C=CCNC(=O)C(=O)C(CC1CC1)NC(=O)[C@@H]1[C@@H]2[C@H](CN1C(=O)[C@@H](NC(=O)N[C@H](CNC(=O)OC)C(C)C)C(C)(C)C)C2(C)C (stereo partly shown) [Compound 14022],≤ 75 nM
16,C=CCNC(=O)C(=O)C(CC1CC1)NC(=O)[C@@H]1[C@@H]2[C@H](CN1C(=O)[C@@H](NC(=O)N[C@H](CNC(=O)OCC)C(C)C)C(C)(C)C)C2(C)C (stereo partly shown) [Compound 14023],75 to 250 nM
17,C=CCNC(=O)C(=O)C(CC1CC1)NC(=O)[C@@H]1[C@@H]2[C@H](CN1C(=O)[C@@H](NC(=O)N[C@H](CNC(=O)OC(C)C)C(C)C)C(C)(C)C)C2(C)C (stereo partly shown) [Compound 14024],75 to 250 nM
18,C=CCNC(=O)C(=O)C(CC1CC1)NC(=O)[C@@H]1[C@@H]2[C@H](CN1C(=O)[C@@H](NC(=O)N[C@H](CNC(=O)OC(C)(C)C)C(C)C)C(C)(C)C)C2(C)C (stereo partly shown) [Compound 14025],> 250 nM
19,CC(C)(C)OC(=O)N1CCCC(NC(=O)N[C@H](C(=O)N2C[C@H]3[C@@H]([C@H]2C(=O)NC(CC2CCC2)C(=O)C(N)=O)C3(C)C)C(C)(C)C)C1 (stereo partly shown) [Compound 14026],> 250 nM
20,CC(C)OC(=O)N1CCCC(NC(=O)N[C@H](C(=O)N2C[C@H]3[C@@H]([C@H]2C(=O)NC(CC2CCC2)C(=O)C(N)=O)C3(C)C)C(C)(C)C)C1 (stereo partly shown) [Compound 14027],75 to 250 nM
21,COC(=O)N1CCCC(NC(=O)N[C@H](C(=O)N2C[C@H]3[C@@H]([C@H]2C(=O)NC(CC2CCC2)C(=O)C(N)=O)C3(C)C)C(C)(C)C)C1 (stereo partly shown) [Compound 14028],75 to 250 nM
22,CN(C[C@@H](NC(=O)N[C@H](C(=O)N1C[C@H]2[C@@H]([C@H]1C(=O)NC(CC1CCC1)C(=O)C(N)=O)C2(C)C)C(C)(C)C)C(C)(C)C)C(=O)OC(C)(C)C (stereo partly shown) [Compound 14029],> 250 nM
23,COC(=O)N(C)C[C@@H](NC(=O)N[C@H](C(=O)N1C[C@H]2[C@@H]([C@H]1C(=O)NC(CC1CCC1)C(=O)C(N)=O)C2(C)C)C(C)(C)C)C(C)(C)C (stereo partly shown) [Compound 14030],≤ 75 nM

row,Compound,Ki
1,C=CCNC(=O)C(=O)C(CC1CC1)NC(=O)[C@@H]1[C@@H]2[C@H](CN1C(=O)[C@@H](NC(=O)N[C@H](CN(C)C(=O)OC)C(C)(C)C)C(C)(C)C)C2(C)C (stereo partly shown) [Compound 14031],75 to 250 nM
2,C=CCNC(=O)C(=O)C(CC1CC1)NC(=O)[C@@H]1[C@@H]2[C@H](CN1C(=O)[C@@H](NC(=O)N[C@H](CN(C)C(=O)OC(C)(C)C)C(C)(C)C)C(C)(C)C)C2(C)C (stereo partly shown) [Compound 14032],> 250 nM
3,CC(C)[C@@H](CN(C)C(=O)OC(C)(C)C)NC(=O)N[C@H](C(=O)N1C[C@H]2[C@@H]([C@H]1C(=O)NC(CC1CCC1)C(=O)C(N)=O)C2(C)C)C(C)(C)C (stereo partly shown) [Compound 14033],75 to 250 nM
4,C=CCNC(=O)C(=O)C(CC1CC1)NC(=O)[C@@H]1[C@@H]2[C@H](CN1C(=O)[C@@H](NC(=O)N[C@H](CN(C)C(=O)OC(C)(C)C)C(C)C)C(C)(C)C)C2(C)C (stereo partly shown) [Compound 14034],> 250 nM
5,COC(=O)N(C)C[C@@H](NC(=O)N[C@H](C(=O)N1C[C@H]2[C@@H]([C@H]1C(=O)NC(CC1CCC1)C(=O)C(N)=O)C2(C)C)C(C)(C)C)C(C)C (stereo partly shown) [Compound 14035],≤ 75 nM
6,C=CCNC(=O)C(=O)C(CC1CC1)NC(=O)[C@@H]1[C@@H]2[C@H](CN1C(=O)[C@@H](NC(=O)N[C@H](CN(C)C(=O)OC)C(C)C)C(C)(C)C)C2(C)C (stereo partly shown) [Compound 14036],75 to 250 nM
7,C=CCNC(=O)C(=O)C(CC1CC1)NC(=O)[C@@H]1[C@@H]2[C@H](CN1C(=O)[C@@H](NC(=O)N[C@H](CN(C)C(=O)OC(C)(C)C)C(C)(C)C)C1CCCCC1)C2(C)C (stereo partly shown) [Compound 14037],> 250 nM
8,CN(C[C@@H](NC(=O)N[C@H](C(=O)N1C[C@H]2[C@@H]([C@H]1C(=O)NC(CC1CCC1)C(=O)C(N)=O)C2(C)C)C1CCCCC1)C(C)(C)C)C(=O)OC(C)(C)C (stereo partly shown) [Compound 14038],75 to 250 nM
9,C=CCNC(=O)C(=O)C(CCC)NC(=O)[C@@H]1[C@@H]2[C@H](CN1C(=O)[C@@H](NC(=O)N[C@H](CN(C)C(=O)OC(C)(C)C)C(C)(C)C)C(C)(C)C)C2(C)C (stereo partly shown) [Compound 14039],> 250 nM
10,C=CCNC(=O)C(=O)C(CCC)NC(=O)[C@@H]1[C@@H]2[C@H](CN1C(=O)[C@@H](NC(=O)N[C@H](CN(C)C(=O)OC(C)(C)C)C(C)(C)C)C1CCCCC1)C2(C)C (stereo partly shown) [Compound 14040],> 250 nM
11,C=CCNC(=O)C(=O)C(CCCC)NC(=O)[C@@H]1[C@@H]2[C@H](CN1C(=O)[C@@H](NC(=O)N[C@H](CN(C)C(=O)OC(C)(C)C)CC(C)(C)C)C(C)(C)C)C2(C)C (stereo partly shown) [Compound 14041],> 250 nM
12,C=CCNC(=O)C(=O)C(CCC)NC(=O)[C@@H]1[C@@H]2[C@H](CN1C(=O)[C@@H](NC(=O)N[C@H](CN(C)C(=O)OC(C)(C)C)CC(C)(C)C)C(C)(C)C)C2(C)C (stereo partly shown) [Compound 14042],> 250 nM
13,C=CCNC(=O)C(=O)C(CC1CC1)NC(=O)[C@@H]1[C@@H]2[C@H](CN1C(=O)[C@@H](NC(=O)N[C@H](CN(C)C(=O)OC(C)(C)C)CC(C)(C)C)C(C)(C)C)C2(C)C (stereo partly shown) [Compound 14043],> 250 nM
14,C=CCNC(=O)C(=O)C(CCCC)NC(=O)[C@@H]1[C@@H]2[C@H](CN1C(=O)[C@@H](NC(=O)N[C@H](CN(C)C(=O)OC(C)(C)C)C(C)(C)C)C(C)(C)C)C2(C)C (stereo partly shown) [Compound 14044],> 250 nM
15,CC(C)(C)OC(=O)N1CC[C@H](NC(=O)N[C@H](C(=O)N2C[C@@H]3OC(C)(C)C[C@@H]3[C@H]2C(=O)NC(CC2CC2)C(=O)C(N)=O)C2CCCCC2)C1 (stereo partly shown) [Compound 14045],> 250 nM
16,CN(C[C@H](CC(C)(C)C)NC(=O)N[C@H](C(=O)N1C[C@H]2[C@@H]([C@H]1C(=O)NC(CC1CC1)C(=O)C(N)=O)C2(C)C)C(C)(C)C)C(=O)OC(C)(C)C (stereo partly shown) [Compound 14046],> 250 nM
17,CN(C[C@H](CC(C)(C)C)NC(=O)N[C@H](C(=O)N1C[C@H]2[C@@H]([C@H]1C(=O)NC(CC1CCC1)C(=O)C(N)=O)C2(C)C)C(C)(C)C)C(=O)OC(C)(C)C (stereo partly shown) [Compound 14047],> 250 nM
18,CCCC(NC(=O)[C@@H]1[C@@H]2[C@H](CN1C(=O)[C@@H](NC(=O)N[C@H](CN(C)C(=O)OC(C)(C)C)CC(C)(C)C)C(C)(C)C)C2(C)C)C(=O)C(N)=O (stereo partly shown) [Compound 14048],> 250 nM
19,CN(C[C@@H](NC(=O)N[C@H](C(=O)N1C[C@H]2[C@@H]([C@H]1C(=O)NC(CC1CC1)C(=O)C(N)=O)C2(C)C)C(C)(C)C)C1CCCCC1)C(=O)OC(C)(C)C (stereo partly shown) [Compound 14049],> 250 nM
20,CN(C[C@@H](NC(=O)N[C@H](C(=O)N1C[C@H]2[C@@H]([C@H]1C(=O)NC(CC1CCC1)C(=O)C(N)=O)C2(C)C)C(C)(C)C)C1CCCCC1)C(=O)OC(C)(C)C (stereo partly shown) [Compound 14050],> 250 nM
21,C=CCNC(=O)C(=O)C(CCC)NC(=O)[C@@H]1[C@@H]2[C@H](CN1C(=O)[C@@H](NC(=O)N[C@H](CN(C)C(=O)OC(C)(C)C)C1CCCCC1)C(C)(C)C)C2(C)C (stereo partly shown) [Compound 14051],> 250 nM
22,C#CCCC(NC(=O)[C@@H]1[C@@H]2[C@H](CN1C(=O)[C@@H](NC(=O)N[C@H](CN(C)C(=O)OC(C)(C)C)C(C)(C)C)C(C)(C)C)C2(C)C)C(=O)C(=O)NCC=C (stereo partly shown) [Compound 14052],> 250 nM
